Literature values in article PMC7014422.

How the values were obtained:
[1] = biological target: Connexin 32 CT1 peptide CT1 (Rattus norvegicus) (UniProt P08033); test: equilibrium fluorescence
[2] = biological target: Connexin 45 CL2 peptide 164-186 (Homo sapiens) (UniProt P36383); test: fluorescence-labeled CaM

| Kd [1] [nM] | Kd [2] [nM] | Substance |
| --- | --- | --- |
| 1200 | – | TA-calmodulin (from UniProt P0DP23) |
| – | 5 | Calmodulin (from UniProt P0DP23) |
